Measured affinities in a library of Ab-14 light chain variants

From the AlphaSeq antibody data of Li et al. 2023 (doi:10.1038/s41467-023-39022-2), copy in the FLAb collection.

Target: peptide PDVDLGDISGINAS, taken from heptad repeat 2 (HR2) of SARS-CoV-2 spike.

Each scFv is VH, a (GGGGS)3 linker, VL, as in the parent Ab-14, and differs from it in the CDRs of the light chain only.
VH: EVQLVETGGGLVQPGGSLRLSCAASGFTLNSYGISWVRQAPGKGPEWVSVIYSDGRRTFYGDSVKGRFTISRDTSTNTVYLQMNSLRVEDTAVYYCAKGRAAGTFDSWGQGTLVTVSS
VL: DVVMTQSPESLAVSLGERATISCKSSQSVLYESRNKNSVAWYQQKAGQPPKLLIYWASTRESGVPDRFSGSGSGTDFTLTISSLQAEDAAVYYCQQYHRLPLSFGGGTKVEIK

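These sequences belong to a second round, designed from the earlier measurements on random variants of the parent. Several design methods are mixed in this list. Affinity was read by AlphaSeq, a pooled yeast mating assay with surface-displayed partners. After mating in shaken culture at 30 °C for 16 h, diploids were selected and their barcode pairs sequenced. Each replicate has its own calibration line, from reference interactions of the BCL2 family. The assay was run in six technical replicates.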

Variants are written as CDR1, CDR2 and CDR3 of the light chain (limits as in the source). Parent: KSSQSVLYESRNKNSVA, WASTRES, QQYHRLPLS. Numbers give log10(Kd / nM), so 0 is 1 nM and 3 is 1 µM. Smaller is tighter. Replicates are averaged; those with no signal do not enter the mean. "nd" means that the variant was in the library but no mating with the target was seen in any replicate; the authors take this as a sign of poor binding, and no number exists. The parent sequence was in this pool as ten entries: three were never detected, three once, and four in most replicates, with averages from 0.34 to 2.37. A sequence measured in both rounds can read differently, since the two assays cover different ranges. As a blank, each scFv also met three strains without target: over all light chain designs, 4% of these pairings were detected, typically at 2.64 and seldom below 1.59. For each scFv, signals with the empty controls are counted beside the result. The authors' rule: three or more of the six replicates give a measured affinity, fewer mean a poor binder.

Variant KLSMSMLMESRHKNSVA, ENSTREE, QHYHRLPLS showed 1.27 (5 of 6 replicates; controls 0 of 18).
Variant KMMQSQLYEDRMSNAVA, NASQRES, QQYHRLPLS showed 0.23 (6 of 6 replicates; controls 2 of 18).
Variant HITYGMQVMGRHSKSIA, QAETREK, QQYDRLPLS showed 1.02 (6 of 6 replicates; controls 0 of 18).
Variant KLEDSNRWNLRGTNAVA, QASTRAA, QQYQRLPFL showed 0.09 (6 of 6 replicates; controls 2 of 18).
Variant MISQLMNMGYFAINSVA, QASLRCN, QQYDRLPLM showed nd (0 of 6 replicates; controls 0 of 18).
Variant MLSEVLHMLGVKKNSIA, DLVLRAN, QQYHRLPLF showed 2.12 (1 of 6 replicates; controls 0 of 18).
Variant KSSQSVLYESRNKNSIA, SASTRES, QQYHRLPLG showed 0.70 (6 of 6 replicates; controls 1 of 18).
Variant KSSQSWDYESRNFWNVA, GASTRES, QQYHRLPLS showed -0.12 (6 of 6 replicates; controls 1 of 18).
Variant TIDDEEPSEGLKWNSIA, GVATRLQ, QQYHRLPLI showed 0.63 (6 of 6 replicates; controls 0 of 18).
Variant KSSQSVWYESRSKNSVA, WASTRWS, QQYHRLPLS showed 2.81 (2 of 6 replicates; controls 1 of 18).
Variant NVGGEDPGQWGMKDSIA, GSSLRAE, QQYWRLPLL showed 0.31 (6 of 6 replicates; controls 0 of 18).
Variant KLSQSWLYESRNKNSVA, GASTRES, QQYHRLPLI showed -0.53 (6 of 6 replicates; controls 0 of 18).
Variant KSSQSVLIESRNKNSVA, HASTRES, QQYHHLPLS showed 1.06 (6 of 6 replicates; controls 0 of 18).
Variant KSQQSVLYEDRNKNSVA, WASTRES, QQYHTLPLS showed 2.26 (4 of 6 replicates; controls 1 of 18).
Variant MISQLTNMGTFAINSVA, QASVRNE, QQYDRLPLE showed 2.89 (6 of 6 replicates; controls 1 of 18).
Variant LISGVWTYGSRNYNSVA, QTSTRES, QQYDRLPLS showed 1.02 (6 of 6 replicates; controls 0 of 18).
Variant KSSQSMAYESRNKNSVA, WASTRES, QQYHRLPLS showed 0.01 (6 of 6 replicates; controls 0 of 18).
Variant NLYQSMNFLGRVMNSIA, DASTIGD, QQYHRLPLS showed 0.58 (6 of 6 replicates; controls 0 of 18).
Variant KLQQSELYESRNKNSVA, HASTRLS, QQYHRLPLS showed 1.08 (6 of 6 replicates; controls 0 of 18).
Variant NLSWKTIGFENEWMAVA, NTSERNA, QQYARLPLS showed 0.90 (6 of 6 replicates; controls 1 of 18).
Variant TISQSTYWESFNKNSVA, QTSTRLE, QDYDRLPLS showed 3.24 (3 of 6 replicates; controls 1 of 18).
Variant RVQINSGHSDMHWKSIA, SASIRAD, QQYERLPLA showed 0.26 (6 of 6 replicates; controls 0 of 18).
Variant KISMLYRYESQNKNSIA, EMSRREN, QQYHRLPLS showed 0.16 (6 of 6 replicates; controls 0 of 18).
Variant QLSQSVLYESRNKNSVA, NASQRES, QQYHRLPLS showed -0.08 (6 of 6 replicates; controls 1 of 18).
Variant KLYERGEGSQKVDRSIA, EMQTRCE, QSYQRLPLS showed 0.35 (6 of 6 replicates; controls 3 of 18).
Variant KFSQLVGMESRNMNSVA, NASTREE, QQYHRLPLS showed 1.78 (3 of 6 replicates; controls 0 of 18).
Variant KLDQSVLYESRNKNSVA, HASTRED, QQYHRLPLS showed 0.09 (6 of 6 replicates; controls 0 of 18).
Variant HMSMLTLQGSRHRNSVA, QMTTREN, QQYDHLPLS showed 0.86 (6 of 6 replicates; controls 0 of 18).
Variant KCSQSVLFEDRYKNSVA, QASQRES, QQYHRLRLS showed nd (0 of 6 replicates; controls 0 of 18).
Variant NLNDSPMYAQIHKDAIA, QETIRNA, QQYAKLPLS showed 0.23 (6 of 6 replicates; controls 0 of 18).
Variant LSSISYLYESVNKNSVA, EASTRES, QQYHRLPLS showed 1.12 (6 of 6 replicates; controls 0 of 18).
Variant FLSQSVLYESREDNSVA, NASQRCS, QQYHRLPLS showed -0.09 (6 of 6 replicates; controls 0 of 18).
Variant KSSISYLYGSRNTNSVA, EASTRES, QQYHRLPLS showed 0.59 (6 of 6 replicates; controls 0 of 18).
Variant KSSCSVDQEDRNSNSVA, NASTREW, QQYHRLPLS showed 0.23 (6 of 6 replicates; controls 0 of 18).
Variant NVGQSMDGEIRNKNSVA, HQSTRED, QHYHRLPLS showed 0.90 (6 of 6 replicates; controls 1 of 18).
Variant YMSMYLDMQQSIQCGVA, DATTRNA, QQYQRLPLS showed -0.49 (6 of 6 replicates; controls 2 of 18).
Variant TLSHSTDLETVHKNSIA, DLMTRES, QQYHRLPLS showed 0.54 (6 of 6 replicates; controls 0 of 18).
Variant KQQFSSGMSQRNKNSVA, SASTRCS, QQYHRLPLS showed 2.13 (1 of 6 replicates; controls 0 of 18).
Variant KMEQGVMYESRNKGSVA, GASVRES, QQYHRLPLS showed 0.34 (6 of 6 replicates; controls 1 of 18).
Variant KSSQSVSYESRNKNSVA, QASTRES, QQYMRLPLS showed -0.14 (6 of 6 replicates; controls 0 of 18).
Variant MISNEQDYNYSATNSVA, DVTERCN, QQYKRLPLT showed 0.87 (6 of 6 replicates; controls 0 of 18).

Extract of 4 entries:

CDR-L1	CDR-L2	CDR-L3	mean, log10 nM	detected	signal with controls
MISQLTNMGTFAINSVA	QASVRNE	QQYDRLPLE	2.89	6 of 6	1 of 18
NLSWKTIGFENEWMAVA	NTSERNA	QQYARLPLS	0.90	6 of 6	1 of 18
TLSHSTDLETVHKNSIA	DLMTRES	QQYHRLPLS	0.54	6 of 6	0 of 18
KLSQSWLYESRNKNSVA	GASTRES	QQYHRLPLI	-0.53	6 of 6	0 of 18